The list shows a part of the results.

This assay concerns A. baumannii ATCC 17978. Nature of the assay: relative growth (fraction of control); higher = less inhibition. Conditions: 50 µM.
In the case of `O=c1cc(-c2ccccc2)oc2c(O)c(O)ccc12`, the relative growth was found to be 0.898. The value for `CCCCOCCOCCOCc1cc2c(cc1CCC)OCO2` was 1.03; that for `Cc1cc(-c2ccc(/N=N/c3ccc4c(S(=O)(=O)[O-])cc(S(=O)(=O)[O-])c(N)c4c3O)c(C)c2)ccc1/N=N/c1ccc2c(S(=O)(=O)[O-])cc(S(=O)(=O)[O-])c(N)c2c1O.[Na+].[Na+].[Na+].[Na+]` was 5.51.

As to `CC(=O)NCCCC[C@@H]1NC(=O)[C@H]2C[C@@H](C(=O)NCCCCCCNC(=O)CS)[C@@H](c3ccc(O)cc3)N2C1=O`, the relative growth is 1.19. The same measure for `COc1ccc([C@@H]2CC(=O)c3c(O)cc(O)cc3O2)cc1O`: 0.899; for `C=CC[C@H](CC(=O)NCCO)C(=O)N[C@@H](COC(=O)[C@@H](CC=C)CC(=O)OC(C)(C)C)Cc1c[nH]c2ccccc12`: 1. The value for `COc1ccccc1CNC(=O)C[C@@H]1C[C@@H]2c3cc(NC(=O)Nc4ccc(C(F)(F)F)cc4)ccc3O[C@@H]2[C@@H](CO)O1` was 0.828. The same measure for `CC[C@H](CCC(C)[C@H]1CCC2C3CCC4C[C@@H](O)CC[C@]4(C)C3CC[C@@]21C)C(C)C` (some centres not stated): 0.987.

For `CN1CCc2cccc3c2C1Cc1ccc(O)c(O)c1-3.Cl` (configuration not stated), the relative growth stood at 0.886. The value for `O=C1OCCN(c2ccccc2)C1=O` was 0.794; that for `CO[C@H](CN(C)C(=O)c1ccc2c(c1)OCO2)[C@H](C)CN([C@H](C)CO)S(=O)(=O)c1ccc(F)cc1` was 1.27; that for `C=CCC(N)(CC=C)c1ccc(C)cc1` was 0.987.

Take `CCOC(=O)C1CCN(c2cn[nH]c(=O)n2)CC1`: the relative growth amounted to 0.842. On to `Cc1ccccc1S(=O)(=O)N1C[C@H](O)COC[C@H]2O[C@@H](CC(=O)N3CCN(C)CC3)CC[C@@H]21`, for which the relative growth turned out to be 0.891. `COC(=O)C[C@H]1C2(C)CC34OC5(C)O[C@@]6([C@H](OC(C)=O)C(OC(C)=O)[C@]7(C)C(/C(=C(/O)C(C)C)C(=O)O[C@H]7c7ccoc7)[C@@]6(O5)[C@H](OC(C)=O)[C@@]3(O)C2OC(=O)C(C)C)[C@]14C` (some centres not stated) returned a relative growth of 0.99. `Cn1c(=O)n(C)c2cc(CN)ccc21` had a relative growth of 1.07. Molecule `CCNc1nc2nonc2nc1NCC` displayed a relative growth of 1.07. The same measure for `N#CCSc1ncnc2c1cnn2CCO`: 1.17; for `CO[C@H]1CN(C)C(=O)c2ccc(NS(C)(=O)=O)cc2OC[C@@H](C)N(C(=O)CN(C)C)C[C@@H]1C`: 0.927. The same measure for `COC(=O)C1=C(C)NC(C)=C(C(=O)OCCN(C)Cc2ccccc2)C1c1cccc([N+](=O)[O-])c1.Cl` (configuration not stated): 1.06; for `COC(=O)[C@@H](Cc1ccccc1)N[C@H](/C=C/C1CC1)[C@@H](O)CCn1cc(-c2ccc(C(=O)NO)s2)nn1`: 1.03; for `CO[C@@H](CN(C)S(=O)(=O)c1ccc(C)cc1)[C@H](C)CN([C@H](C)CO)S(=O)(=O)c1cccc(Cl)c1`: 0.862.

Source of the values: published antibiotic growth screens (doi:10.1038/s41589-023-01349-8).
